Drawing on PubChem BioAssay AID602393 (Broad Institute, 2012), this text covers reporter increase for two compounds.

This is a selection; strong and weak results do not stand in their true shares. Calls of active or inactive are those of the source. Cut-off read from the data, not from the text of the source: active = activation above about 40%; inconclusive = no clear call, values can overlap the other calls; inactive = below that.

The nature of this test: Bmi1 luciferase reporter increase in mESCs, primary screen, esBAF inhibitor project, mouse ES cells, Bmi1 luciferase knock-in, single point (AID 602393).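 Note: 0% = median of the plate's neutral control wells and 100% = double that signal; a rise in the Bmi1 reporter signal indicates esBAF inhibition.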 The following applies: 24 h, at 12.5 µM, hits give high values, 100% = twice the neutral-well signal.
`CCC(=O)N(c1ccccc1)C1(COC)CCN(CCc2cccs2)CC1`: the reporter increase was inactive: -0.969%. Then `CCC(=O)N(c1ccccc1)C1(COC)CCN(CCn2nnn(CC)c2=O)CC1`, with inactive: 5.02%.
